One molecule from ChEMBL document CHEMBL5523703, “Modulators for palmitoylation of proteins and small molecules” (Eur J Med Chem, 2024) can be followed below.

This experiment is filed under the species Homo sapiens.

On to `C/C(=C\CC12OC(C)(C)C3CC(C=C4C(=O)c5c(O)cccc5OC431)C2=O)COC(=O)c1cccnc1` (stereo unspecified), for which the Kinact amounted to 0.04 M⁻¹ s⁻¹.
